These are literature values, as cited in paper PMC11503300.

In this series the target is VEGF-A165 (Homo sapiens) (UniProt P15692).

Take Faricimab: the dissociation constant (Kd) is 3 nM.
